Measured values published in a protein production outcome set (Wang et al. 2014).

Assay: label from the status in PepcDB records

| Sequence | protein production |
| --- | --- |
| MFQRLNKMFVGEVSSSSNQEPEFNEKEDDEWILVDFIDTCTGFSAEEEEEEEDISEESPTEHPSVFSCLPASLECLADTSDSCFLQFESCPMEESWFITPPPCFTAGGLTTIKVETSPMENLLIEHPSMSVYAVHNSCPGLSEATRGTDELHSPSSPRVEAQNEMGQHIHCYVAALAAHTTFLEQPKSFRPSQWIKEHSERQPLNRNSLRRQNLTRDCHPRQVKHNGWVVHQPCPRQYNY | failed |
| MSSGLRAADFPRWKRHISEQLRRRDRLQRQAFEEIILQYNKLLEKSDLHSVLAQKLQAEKHDVPNRHEISPGHDGTWNDNQLQEMAQLRIKHQEELTELHKKRGELAQLVIDLNNQMQRKDREMQMNEAKIAECLQTISDLETECLDLRTKLCDLERANQTLKDEYDALQITFTALEGKLRKTTEENQELVTRWMAEKAQEANRLNAENEKDSRRRQARLQKELAEAAKEPLPVEQDDDIEVIVDETSDHTEETSPVRAISRAATKRLSQPAGGLLDSITNIFGRRSVSSFPVPQDNVDTHPGSGKEVRVPATALCVFDAHDGEVNAVQFSPGSRLLATGGMDRRVKLWEVFGEKCEFKGSLSGSNAGITSIEFDSAGSYLLAASNDFASRIWTVDDYRLRHTLTGHSGKVLSAKFLLDNARIVSGSHDRTLKLWDLRSKVCIKTVFAGSSCNDIVCTEQCVMSGHFDKKIRFWDIRSESIVREMELLGKITALDLNPERTELLSCSRDDLLKVIDLRTNAIKQTFSAPGFKCGSDWTRVVFSPDGSYVAAGSAEGSLYIWSVLTGKVEKVLSKQHSSSINAVAWSPSGSHVVSVDKGCKAVLWAQY | failed |
